Results published in article PMC7445743 (Journal of Medicinal Chemistry, 2020).
Counter-ions that a name gives are not always drawn.

The chains behind the UniProt entries cited, without tags or fusion partners. Where a name states a change or a piece, a line headed by the entry shows the natural chain unless it says otherwise.
UniProt O43293: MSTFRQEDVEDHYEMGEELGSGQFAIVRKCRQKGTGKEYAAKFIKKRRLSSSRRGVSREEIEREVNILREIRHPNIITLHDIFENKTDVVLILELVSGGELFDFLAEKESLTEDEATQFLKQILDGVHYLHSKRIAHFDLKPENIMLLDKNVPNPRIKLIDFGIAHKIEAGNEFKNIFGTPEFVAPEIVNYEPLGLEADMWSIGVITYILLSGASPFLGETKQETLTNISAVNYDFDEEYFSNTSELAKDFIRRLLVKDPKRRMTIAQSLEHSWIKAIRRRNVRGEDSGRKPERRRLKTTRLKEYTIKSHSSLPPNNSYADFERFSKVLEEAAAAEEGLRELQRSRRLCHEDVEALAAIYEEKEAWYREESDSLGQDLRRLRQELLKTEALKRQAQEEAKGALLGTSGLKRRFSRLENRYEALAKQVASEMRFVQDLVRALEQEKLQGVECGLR
UniProt P53355: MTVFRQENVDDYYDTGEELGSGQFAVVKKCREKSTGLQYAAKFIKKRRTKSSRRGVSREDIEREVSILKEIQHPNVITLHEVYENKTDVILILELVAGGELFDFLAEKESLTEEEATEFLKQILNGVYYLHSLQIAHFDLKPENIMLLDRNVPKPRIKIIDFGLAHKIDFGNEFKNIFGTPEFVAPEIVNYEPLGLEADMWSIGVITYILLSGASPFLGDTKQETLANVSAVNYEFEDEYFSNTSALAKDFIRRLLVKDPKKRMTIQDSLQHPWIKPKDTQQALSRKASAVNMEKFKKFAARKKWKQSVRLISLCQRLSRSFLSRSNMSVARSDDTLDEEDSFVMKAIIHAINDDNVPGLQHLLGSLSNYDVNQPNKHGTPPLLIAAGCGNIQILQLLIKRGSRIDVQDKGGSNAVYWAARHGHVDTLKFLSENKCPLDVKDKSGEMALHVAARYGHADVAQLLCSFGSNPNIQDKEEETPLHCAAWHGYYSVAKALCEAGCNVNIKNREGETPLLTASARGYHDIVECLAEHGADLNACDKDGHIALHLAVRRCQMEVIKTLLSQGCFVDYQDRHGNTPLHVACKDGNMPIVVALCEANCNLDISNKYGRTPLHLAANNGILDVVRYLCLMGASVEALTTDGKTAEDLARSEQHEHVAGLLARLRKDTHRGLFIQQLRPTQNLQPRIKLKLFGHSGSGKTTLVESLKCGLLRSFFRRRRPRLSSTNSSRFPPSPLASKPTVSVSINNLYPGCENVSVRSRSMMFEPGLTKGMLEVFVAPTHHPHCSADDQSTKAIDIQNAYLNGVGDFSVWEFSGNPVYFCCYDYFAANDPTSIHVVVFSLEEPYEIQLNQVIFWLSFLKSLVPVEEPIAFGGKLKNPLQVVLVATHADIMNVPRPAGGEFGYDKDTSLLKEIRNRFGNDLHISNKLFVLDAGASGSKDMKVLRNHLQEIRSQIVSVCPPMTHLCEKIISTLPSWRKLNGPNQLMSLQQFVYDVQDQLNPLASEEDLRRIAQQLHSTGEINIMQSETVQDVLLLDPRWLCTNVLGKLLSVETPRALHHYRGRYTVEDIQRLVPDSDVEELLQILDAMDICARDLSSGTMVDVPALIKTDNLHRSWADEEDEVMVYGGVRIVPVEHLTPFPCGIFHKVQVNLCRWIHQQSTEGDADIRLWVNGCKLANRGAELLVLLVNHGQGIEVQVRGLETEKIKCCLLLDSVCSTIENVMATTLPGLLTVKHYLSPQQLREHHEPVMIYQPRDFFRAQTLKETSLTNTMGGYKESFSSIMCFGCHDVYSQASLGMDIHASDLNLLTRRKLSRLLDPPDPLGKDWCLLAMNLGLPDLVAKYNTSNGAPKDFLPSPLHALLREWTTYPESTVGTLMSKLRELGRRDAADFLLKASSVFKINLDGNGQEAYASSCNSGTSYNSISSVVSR
UniProt P68400, whole entry: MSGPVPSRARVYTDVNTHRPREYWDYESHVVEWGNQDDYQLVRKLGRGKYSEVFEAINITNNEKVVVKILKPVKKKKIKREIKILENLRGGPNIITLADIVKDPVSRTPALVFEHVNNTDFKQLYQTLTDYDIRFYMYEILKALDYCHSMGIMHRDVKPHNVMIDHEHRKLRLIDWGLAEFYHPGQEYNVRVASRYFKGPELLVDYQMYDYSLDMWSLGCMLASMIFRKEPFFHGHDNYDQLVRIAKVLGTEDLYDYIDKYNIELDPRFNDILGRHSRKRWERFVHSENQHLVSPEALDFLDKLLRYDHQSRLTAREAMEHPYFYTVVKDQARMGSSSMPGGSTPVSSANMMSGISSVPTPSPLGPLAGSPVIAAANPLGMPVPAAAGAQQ
UniProt P00519, whole entry, species assumed: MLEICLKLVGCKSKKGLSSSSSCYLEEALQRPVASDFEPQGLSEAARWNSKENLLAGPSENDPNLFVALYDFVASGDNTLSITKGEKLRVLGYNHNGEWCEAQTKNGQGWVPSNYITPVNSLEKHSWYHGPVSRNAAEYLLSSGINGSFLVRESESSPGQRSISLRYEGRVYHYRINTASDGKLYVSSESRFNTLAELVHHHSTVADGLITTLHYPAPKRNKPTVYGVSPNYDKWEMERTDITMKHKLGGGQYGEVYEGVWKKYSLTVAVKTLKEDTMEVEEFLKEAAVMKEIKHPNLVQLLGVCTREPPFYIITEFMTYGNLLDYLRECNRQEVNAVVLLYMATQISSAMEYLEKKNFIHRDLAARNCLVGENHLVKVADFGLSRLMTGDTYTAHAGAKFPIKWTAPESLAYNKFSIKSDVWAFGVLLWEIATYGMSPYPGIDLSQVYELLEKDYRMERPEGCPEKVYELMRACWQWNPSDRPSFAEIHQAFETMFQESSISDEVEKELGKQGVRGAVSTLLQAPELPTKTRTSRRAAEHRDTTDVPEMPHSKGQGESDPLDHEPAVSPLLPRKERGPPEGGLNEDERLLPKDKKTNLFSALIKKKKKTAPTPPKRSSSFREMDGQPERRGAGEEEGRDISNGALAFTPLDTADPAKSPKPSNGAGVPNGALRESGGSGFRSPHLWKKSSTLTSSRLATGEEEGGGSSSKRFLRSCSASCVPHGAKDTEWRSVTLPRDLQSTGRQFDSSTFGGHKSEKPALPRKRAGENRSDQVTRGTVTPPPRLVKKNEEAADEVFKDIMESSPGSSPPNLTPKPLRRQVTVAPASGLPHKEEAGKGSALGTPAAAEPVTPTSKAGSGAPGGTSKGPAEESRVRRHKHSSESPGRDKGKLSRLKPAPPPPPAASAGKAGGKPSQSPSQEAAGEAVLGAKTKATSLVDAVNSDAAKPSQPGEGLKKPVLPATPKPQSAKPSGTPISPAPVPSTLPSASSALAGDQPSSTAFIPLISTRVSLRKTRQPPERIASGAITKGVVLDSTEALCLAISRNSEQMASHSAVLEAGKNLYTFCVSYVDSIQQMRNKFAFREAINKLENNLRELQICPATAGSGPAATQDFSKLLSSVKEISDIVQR
UniProt P11309, whole entry: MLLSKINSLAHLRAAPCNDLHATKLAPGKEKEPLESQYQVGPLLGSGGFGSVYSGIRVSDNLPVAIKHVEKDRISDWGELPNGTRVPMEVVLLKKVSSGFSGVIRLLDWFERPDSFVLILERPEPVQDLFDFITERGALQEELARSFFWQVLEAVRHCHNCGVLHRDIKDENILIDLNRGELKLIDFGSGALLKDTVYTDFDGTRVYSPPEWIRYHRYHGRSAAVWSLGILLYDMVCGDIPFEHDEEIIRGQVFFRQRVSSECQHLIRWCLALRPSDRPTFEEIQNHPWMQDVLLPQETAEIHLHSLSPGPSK
UniProt P49841, whole entry, species assumed: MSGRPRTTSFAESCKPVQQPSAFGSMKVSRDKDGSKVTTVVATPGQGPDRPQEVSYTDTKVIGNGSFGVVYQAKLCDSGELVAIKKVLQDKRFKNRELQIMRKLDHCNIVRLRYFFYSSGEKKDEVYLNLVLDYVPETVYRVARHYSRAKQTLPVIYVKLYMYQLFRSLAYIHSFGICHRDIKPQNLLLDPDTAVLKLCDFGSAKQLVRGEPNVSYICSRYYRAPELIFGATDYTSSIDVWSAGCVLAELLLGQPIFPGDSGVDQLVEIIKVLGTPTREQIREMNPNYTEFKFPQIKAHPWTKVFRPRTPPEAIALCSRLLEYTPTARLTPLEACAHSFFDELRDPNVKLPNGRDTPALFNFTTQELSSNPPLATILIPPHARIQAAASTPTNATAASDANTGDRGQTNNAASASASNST
UniProt Q96NX5: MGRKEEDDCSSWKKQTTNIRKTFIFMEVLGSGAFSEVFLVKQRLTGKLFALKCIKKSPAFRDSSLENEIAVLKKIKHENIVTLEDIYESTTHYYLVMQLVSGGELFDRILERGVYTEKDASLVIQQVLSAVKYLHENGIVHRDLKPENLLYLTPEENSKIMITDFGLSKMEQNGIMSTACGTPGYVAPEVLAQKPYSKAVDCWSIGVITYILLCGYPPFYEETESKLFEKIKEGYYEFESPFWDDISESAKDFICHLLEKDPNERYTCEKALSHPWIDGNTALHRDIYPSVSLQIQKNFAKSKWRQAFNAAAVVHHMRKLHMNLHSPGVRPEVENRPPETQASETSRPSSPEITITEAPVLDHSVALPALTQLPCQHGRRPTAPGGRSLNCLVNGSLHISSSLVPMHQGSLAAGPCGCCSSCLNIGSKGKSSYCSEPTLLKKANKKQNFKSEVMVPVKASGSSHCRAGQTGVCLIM
UniProt Q9UQM7, whole entry: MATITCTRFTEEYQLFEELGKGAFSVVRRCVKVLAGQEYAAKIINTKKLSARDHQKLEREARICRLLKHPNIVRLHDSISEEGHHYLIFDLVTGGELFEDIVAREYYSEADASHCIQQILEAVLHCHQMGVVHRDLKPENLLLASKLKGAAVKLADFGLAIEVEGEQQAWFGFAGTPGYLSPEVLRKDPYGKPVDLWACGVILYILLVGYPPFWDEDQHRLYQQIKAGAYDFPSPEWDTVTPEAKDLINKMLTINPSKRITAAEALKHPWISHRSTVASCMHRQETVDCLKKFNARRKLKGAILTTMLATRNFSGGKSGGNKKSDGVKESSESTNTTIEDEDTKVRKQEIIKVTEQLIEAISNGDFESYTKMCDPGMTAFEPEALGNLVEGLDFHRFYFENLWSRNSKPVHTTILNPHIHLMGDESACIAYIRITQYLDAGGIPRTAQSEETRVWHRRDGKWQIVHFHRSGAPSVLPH
UniProt O96013: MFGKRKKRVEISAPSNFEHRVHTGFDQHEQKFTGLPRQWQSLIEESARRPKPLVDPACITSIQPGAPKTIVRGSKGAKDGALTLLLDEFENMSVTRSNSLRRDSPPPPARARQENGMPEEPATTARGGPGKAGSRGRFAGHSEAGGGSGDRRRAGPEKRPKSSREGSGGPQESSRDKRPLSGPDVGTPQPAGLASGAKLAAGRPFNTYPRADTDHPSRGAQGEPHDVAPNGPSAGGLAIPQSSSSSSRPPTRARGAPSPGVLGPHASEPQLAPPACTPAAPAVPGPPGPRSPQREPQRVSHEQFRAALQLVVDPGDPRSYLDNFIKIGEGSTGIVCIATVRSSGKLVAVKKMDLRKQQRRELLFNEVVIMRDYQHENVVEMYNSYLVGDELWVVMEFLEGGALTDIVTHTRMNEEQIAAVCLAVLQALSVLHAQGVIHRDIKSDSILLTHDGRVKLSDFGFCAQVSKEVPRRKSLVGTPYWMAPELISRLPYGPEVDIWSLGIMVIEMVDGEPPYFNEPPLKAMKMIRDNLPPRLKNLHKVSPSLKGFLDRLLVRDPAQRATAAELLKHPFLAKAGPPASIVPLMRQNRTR

Experiments:
DAPK3 = DAPK3 (Homo sapiens, UniProt O43293); details: supplement CSV
CaMK4 = biological target: T1, CaMK4 (Homo sapiens, UniProt Q16566); details: supplement CSV
T1 sequence (Q16566 1-473): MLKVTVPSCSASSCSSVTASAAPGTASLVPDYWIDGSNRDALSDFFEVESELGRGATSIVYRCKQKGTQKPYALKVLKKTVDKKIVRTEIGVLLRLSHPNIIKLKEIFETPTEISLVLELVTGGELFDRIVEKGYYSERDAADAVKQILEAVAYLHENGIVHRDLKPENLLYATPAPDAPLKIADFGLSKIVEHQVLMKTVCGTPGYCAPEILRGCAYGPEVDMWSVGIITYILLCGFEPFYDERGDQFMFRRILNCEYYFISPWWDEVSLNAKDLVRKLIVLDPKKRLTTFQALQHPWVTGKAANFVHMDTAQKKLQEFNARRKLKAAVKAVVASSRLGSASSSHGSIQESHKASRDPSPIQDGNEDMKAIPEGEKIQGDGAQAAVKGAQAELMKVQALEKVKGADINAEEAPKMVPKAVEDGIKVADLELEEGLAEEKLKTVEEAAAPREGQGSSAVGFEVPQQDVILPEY

SYK = SYK (Homo sapiens, UniProt P43405); details: supplement CSV
DAPK1 = DAPK1 (Homo sapiens, UniProt P53355); details: supplement CSV
CK2a = CK2a (Homo sapiens, UniProt P68400); details: supplement CSV
ABL = ABL (Homo sapiens, UniProt P00519); details: supplement CSV
PIM1 = PIM1 (Homo sapiens, UniProt P11309); details: supplement CSV
GSK3β = GSK3β (Homo sapiens, UniProt P49841); details: supplement CSV
DCLK1 = biological target: T2, DCLK1 (Homo sapiens, UniProt O15075); details: supplement CSV
T2 sequence (O15075 1-740): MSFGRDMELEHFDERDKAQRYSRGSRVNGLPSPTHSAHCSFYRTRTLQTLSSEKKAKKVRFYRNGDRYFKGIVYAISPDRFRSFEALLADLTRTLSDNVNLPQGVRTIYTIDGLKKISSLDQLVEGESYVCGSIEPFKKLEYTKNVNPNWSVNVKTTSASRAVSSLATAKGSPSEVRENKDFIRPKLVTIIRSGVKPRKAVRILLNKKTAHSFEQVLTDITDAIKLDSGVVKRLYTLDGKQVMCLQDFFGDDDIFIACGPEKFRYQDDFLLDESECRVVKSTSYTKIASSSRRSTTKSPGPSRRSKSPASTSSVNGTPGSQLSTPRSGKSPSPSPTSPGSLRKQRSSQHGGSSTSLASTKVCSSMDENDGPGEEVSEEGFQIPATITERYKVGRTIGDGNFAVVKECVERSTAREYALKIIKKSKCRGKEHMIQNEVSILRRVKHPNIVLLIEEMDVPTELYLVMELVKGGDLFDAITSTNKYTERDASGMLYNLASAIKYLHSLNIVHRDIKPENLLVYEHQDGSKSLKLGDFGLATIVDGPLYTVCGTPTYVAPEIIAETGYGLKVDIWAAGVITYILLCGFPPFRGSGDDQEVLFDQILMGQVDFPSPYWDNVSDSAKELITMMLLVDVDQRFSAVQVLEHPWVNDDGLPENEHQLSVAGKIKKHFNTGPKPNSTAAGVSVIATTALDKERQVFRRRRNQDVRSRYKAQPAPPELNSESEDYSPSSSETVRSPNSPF

CAMK1G = CAMK1G (Homo sapiens, UniProt Q96NX5); details: supplement CSV
CAMK2A = CAMK2A (Homo sapiens, UniProt Q9UQM7); details: supplement CSV
PAK4 = PAK4 (Homo sapiens, UniProt O96013); details: supplement CSV
DIO mice = details: 50 mg/kg repeat dosing
[1] = DIO mice, 14 days at 25 mg/kg
in vivo = details: male, Crl:CD Sprague-Dawley, rat, iv, 1 mg/kg
in vitro [2] = details: mouse, plasma
in vitro [3] = details: rat, plasma
in vitro [4] = details: human, Caco-2

SMILES	DAPK3 Tm (DAPK3)	CAMK4 Tm (CaMK4)	DAPK1 Tm (DAPK1)	CK2alpha Tm (CK2a)	ABL1 Tm (ABL)	CAMK1G Tm (CAMK1G)	PAK4 Tm (PAK4)	further results
CNC(=O)c1cnc(NCCN)nc1Nc1cccc(C(F)(F)F)c1 [Compound 2, 2-((2-Aminoethyl)amino)-N-methyl-4-((3-(trifluoromethyl)phenyl)amino)pyrimidine-5-carboxamide, reference compound]	1.36 0C							
CNCCN(C)c1ncc(C(N)=O)c(Nc2cccc(C(F)(F)F)c2)n1 [Compound 4, 2-(Methyl(2-(methylamino)ethyl)amino)-4-((3-(trifluoromethyl)phenyl)amino)pyrimidine-5-carboxamide Hydrochloride]		3.36 0C						
CN(C)CCN(C)c1ncc(C(N)=O)c(Nc2cccc(C(F)(F)F)c2)n1 [Compound 5, 2-((2-(Dimethylamino)ethyl)(methyl)amino)-4-((3-(trifluoromethyl)phenyl)amino)pyrimidine-5-carboxamide Hydrochloride]	3.45 0C	2.21 0C						
NC(=O)c1cnc(N2CCC[C@H](N)C2)nc1Nc1cc(C(F)(F)F)cc(C(F)(F)F)c1 [Compound 9]			6.07 0C	5.89 0C	3.88 0C			SYK Tm (SYK): 4.13 0C; PIM1 Tm (PIM1): 3.98 0C
CC(C)c1cc(Nc2nc(N3CCC[C@H](N)C3)ncc2C(N)=O)cc(C(C)C)c1 [Compound 15, (S)-2-(3-Aminopiperidin-1-yl)-4-((3,5-diisopropylphenyl)amino)pyrimidine-5-carboxamide]			4.65 0C	4.05 0C	5.95 0C			
CC(C)(C)c1cc(Nc2nc(N3CCC[C@H](N)C3)ncc2C(N)=O)cc(S(C)(=O)=O)c1 [Compound 16, (S)-2-(3-Aminopiperidin-1-yl)-4-((3-(tert-butyl)-5-(methylsulfonyl)phenyl)amino)pyrimidine-5-carboxamide]	6.49 0C	8.73 0C				11.05 0C	1.43 0C	GSK3B Tm (GSK3β): -0.11 0C; DCAMKL1 Tm (DCLK1): 0.26 0C; CAMK2A Tm (CAMK2A): 1.07 0C
CC(C)(C#N)c1cc(Nc2nc(N3CCC[C@H](N)C3)ncc2C(N)=O)cc(-c2ccccc2)c1 [Compound 17, (S)-2-(3-Aminopiperidin-1-yl)-4-((5-(2-cyanopropan-2-yl)-[1,1′-biphenyl]-3-yl)amino)pyrimidine −5-carboxamide Hydrochloride]						17.46 0C	2.67 0C	
CC(C)(C#N)c1cc(Nc2nc(N3CCC[C@H](N)C3)ncc2C(N)=O)cc(C(C)(C)C#N)c1 [Compound 18, (S)-2-(3-Aminopiperidin-1-yl)-4-((3,5-bis(2-cyanopropan-2-yl)phenyl)amino)pyrimidine-5-carboxamide Hydrochloride]			3.46 0C	0.56 0C	0.27 0C	11.04 0C	1.23 0C	PIM1 Tm (PIM1): 0.81 0C; tolerability of repeat dosing (DIO mice): not tolerated due to bloating of the gastrointestinal tract; exposure on repeat dosing [1]: no significant changes in exposure; metabolites in ex vivo plasma (rat ex vivo plasma samples): only low levels of metabolites; renal excretion (urine from dosed rats): renal excretion of unchanged drug at least partially contributes to clearance; clearance (in vivo): 125 mL/min/kg; half-life (in vivo): 6.2 h; fraction unbound (in vitro [2]): 0.016; fraction unbound (in vitro [3]): 0.06; Papp A→B (in vitro [4]): 1.1 ×10⁻⁶ cm/s
CC(C)c1cc(Nc2nc(N3CCC[C@H](N)C3)ncc2C(N)=O)cc(C(C)C)n1 [Compound 19, (S)-2-(3-Aminopiperidin-1-yl)-4-((2,6-diisopropylpyridin-4-yl)amino)pyrimidine-5-carboxamide]								Papp A→B (in vitro [4]): 0.4 ×10⁻⁶ cm/s
